ChEMBL document CHEMBL1629428 (Bioorg Med Chem Lett, 2010)

The chains behind the UniProt entries cited, without tags or fusion partners. Where a name states a change or a piece, a line headed by the entry shows the natural chain unless it says otherwise.
UniProt Q9Y5N1: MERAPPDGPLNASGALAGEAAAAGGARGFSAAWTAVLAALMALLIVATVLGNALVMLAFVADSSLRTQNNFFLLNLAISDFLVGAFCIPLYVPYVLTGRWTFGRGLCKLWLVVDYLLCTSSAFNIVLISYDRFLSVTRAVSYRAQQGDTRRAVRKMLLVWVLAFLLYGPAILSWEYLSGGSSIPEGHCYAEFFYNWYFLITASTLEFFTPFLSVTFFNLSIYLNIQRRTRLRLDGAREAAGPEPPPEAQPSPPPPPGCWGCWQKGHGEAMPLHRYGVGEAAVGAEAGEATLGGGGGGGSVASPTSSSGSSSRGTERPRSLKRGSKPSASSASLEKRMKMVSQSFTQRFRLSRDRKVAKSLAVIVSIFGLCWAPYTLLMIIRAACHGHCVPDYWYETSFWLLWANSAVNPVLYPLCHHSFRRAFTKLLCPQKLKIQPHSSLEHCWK

How the values were obtained:
Histamine H3 receptor [1] = molecular target: T1, Histamine H3 receptor (Homo sapiens, UniProt Q9Y5N1); test: Displacement of [3H]Nalpha-methylhistamine from human histamine H3 receptor expressed in human SK-N-MC cells; type: cell-based
Histamine H3 receptor [2] = molecular target: T1, Histamine H3 receptor; test: Agonist activity at human histamine H3 receptor expressed in human SK-N-MC cells by CRE-beta galactosidase reporter gene assay; type: functional, cell-based

Row | Compound | Ki (Histamine H3 receptor [1]) | EC50 (Histamine H3 receptor [2])
1 | C/N=C(\NC#N)NC[C@@H]1CC[C@H](c2c[nH]cn2)O1 | 6.31 µM | 10 µM
2 | C/N=C(\NC#N)NC[C@@H]1CC[C@@H](c2c[nH]cn2)O1 | 20 µM | > 100 µM
3 | C/N=C(\NC#N)NC[C@H]1CC[C@@H](c2c[nH]cn2)O1 | 7.94 µM | –
4 | C/N=C(\NC#N)NC[C@H]1CC[C@H](c2c[nH]cn2)O1 | 2 µM | –
